Four compounds from ChEMBL document CHEMBL2346625 (Bioorg Med Chem, 2013) can be followed below.

Test [1] deals with T1, Streptokinase (Streptococcus pyogenes) (UniProt P96471).
T1 sequence (whole entry): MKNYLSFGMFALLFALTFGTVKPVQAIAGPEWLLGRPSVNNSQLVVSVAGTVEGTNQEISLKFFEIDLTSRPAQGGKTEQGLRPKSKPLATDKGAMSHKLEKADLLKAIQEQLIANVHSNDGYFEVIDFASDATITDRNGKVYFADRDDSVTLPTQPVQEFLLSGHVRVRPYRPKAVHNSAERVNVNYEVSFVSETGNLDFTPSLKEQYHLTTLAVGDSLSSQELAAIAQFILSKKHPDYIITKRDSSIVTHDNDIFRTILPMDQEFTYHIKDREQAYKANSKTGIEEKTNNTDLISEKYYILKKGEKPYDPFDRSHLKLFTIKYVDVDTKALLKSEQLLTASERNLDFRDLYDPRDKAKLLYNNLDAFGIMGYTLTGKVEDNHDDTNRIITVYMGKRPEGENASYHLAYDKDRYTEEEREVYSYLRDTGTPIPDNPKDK
Nature of the test: Inhibition of Streptococcus pyogenes UMAA2616 streptokinase assessed as cleavage of S-2403 to colored product p-nitroaniline at 50 uM after 2 hrs relative to control. The gist of the method:
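UMAA2616 grown in THY (0.1% DMSO, compound at 5 or 50 μM) at 37 °C to OD600 ≈ 1.0, then centrifuged. Supernatant mixed with PBS, human plasma and S-2403 plasmin substrate and incubated 2 h at 37 °C; A405 read. Activity came from a DMSO-culture standard curve, was corrected for growth by OD600 and expressed as test/control. Mean of at least three experiments ± SD.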

Another test deals with T2, Streptokinase (Streptococcus pyogenes, UniProt P96471).
T2 sequence (P96471 whole entry): T1 sequence (whole entry)

Broadly, the pIC50 is the negative decadic logarithm of the IC50, by convention in mol/L. Lower therefore signals a high IC50.

pIC50: −log10 of the molar value. Activity calls are given as the source filed them. No cut-off for these calls is given here.

With `C=CCn1c(SCCO)nc2c(c1=O)C(C)(C)Cc1ccccc1-2`, the T/C result in test [1] was “inactive”.
In the case of `C=CCn1c(SCc2ccccc2)nc2c(c1=O)C(C)(C)Cc1ccccc1-2`, the pIC50 at Streptokinase was 4.97.
In the case of `CCn1c(SCCOC)nc2c(c1=O)C(C)(C)Cc1ccccc1-2`, in test [1], the T/C entry is “inactive”.
As to `C=CCn1c(NCC)nc2c(c1=O)C(C)(C)Cc1ccccc1-2`, the T/C entry in test [1] was “inactive”.
